Laboratory results: ChEMBL document CHEMBL3600335 (Bioorg Med Chem Lett, 2015)
Activity calls are given as the source filed them. No cut-off for these calls is given here.

Assays:
[1] = target: Human immunodeficiency virus type 1 reverse transcriptase (Human immunodeficiency virus 1) (UniProt Q72547); experiment: Inhibition of HIV-1 reverse transcriptase in human Jurkat cells assessed as ratio MTT activity to reverse transcriptase activity with compound/reverse transcriptase activity with DMSO at 1 ug/ml after 72 hrs; assay type: cell-based
In short: (§1)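 Jurkat cells infected with HIV-1 in the presence of compound, with DMSO as solvent control. Viability was read by MTT assay and HIV replication by reverse transcriptase activity assay. The value is the ratio MTT activity/(RT activity with compound/RT activity in DMSO).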

[2] = target: Human immunodeficiency virus type 1 reverse transcriptase (Human immunodeficiency virus 1) (UniProt Q72547); experiment: Inhibition of HIV-1 reverse transcriptase at 37.5 to 150 ug/ml by Roche colorimetric assay
[3] = target: Human immunodeficiency virus type 1 reverse transcriptase (Human immunodeficiency virus 1) (UniProt Q72547); experiment: Inhibition of HIV-1 reverse transcriptase in human Jurkat cells assessed as ratio MTT activity to reverse transcriptase activity with compound/reverse transcriptase activity with DMSO at 5 ug/ml after 72 hrs; assay type: cell-based; in short: as §1

SMILES	Ratio [1]	inhibition [2]	Ratio [3]
C=C(C)[C@@H]1CC[C@]2(C(=O)[O-])CC[C@]3(C)[C@H](CC[C@@H]4[C@@]5(C)CC[C@H](O)C(C)(C)[C@@H]5CC[C@]43C)[C@@H]12.CCCCCCCCCCCC[N+](C)(C)Cc1ccccc1	0.121	inactive	0.474
C=C(C)[C@@H]1CC[C@]2(C(=O)N[C@H](C)C(=O)O)CC[C@]3(C)[C@H](CC[C@@H]4[C@@]5(C)CC[C@H](O)C(C)(C)[C@@H]5CC[C@]43C)[C@@H]12	0.319	inactive	0.885
C=C(C)[C@@H]1CC[C@]2(C(=O)N[C@H](C)C(=O)[O-])CC[C@]3(C)[C@H](CC[C@@H]4[C@@]5(C)CC[C@H](O)C(C)(C)[C@@H]5CC[C@]43C)[C@@H]12.CCCCCCCCCCCC[N+](C)(C)Cc1ccccc1		inactive	
